Only a part is listed here, and it is no random draw. The source made the active and inactive calls.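 The calls were made as follows: active = viability gain under doxorubicin at or above a set limit, the compound median plus 3 SD (cut at about 4.7% in these data); inactive = the rest.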

This test in a line: protection of MRP-1-high cells against doxorubicin toxicity – H69AR cells, CellTiter-Glo, MRP-1 activator project, primary screen (AID 799).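 Also: MRP-1 overexpressing cells given doxorubicin 25 µM after compound pretreatment; 18-22 h compound pretreatment then 72 h with doxorubicin before readout; 0% = doxorubicin-only wells and 100% = vehicle-treated cells without doxorubicin.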 The note with it: viability rescue, at 10 µM, active compounds read high.
`CCOC(=O)c1ccc(NP(C)(=O)Oc2ccc(F)cc2)cc1` (centres undefined): the viability increase is inactive: -3.34%. With `CP(=O)(Nc1ccccc1)Oc1ccc(F)cc1` (centres undefined), the viability increase is inactive: -2.83%. Next, `CCN(CC)CCCOC(=O)C(O)(c1ccccc1)C1CCCCC1` (centres undefined): inactive: -3.54%; `CP(=O)(Nc1ccccc1F)Oc1ccccc1` (centres undefined): inactive: -1.8%.

Consider `CC(C)c1ccc(OP(C)(=O)Nc2ccc(SC(F)(F)F)cc2)cc1` (centres undefined), for which the viability increase is inactive: -2.43%.

On to `O=C(OCCN1CCN(CCOCc2ccccc2)CC1)C(O)(c1ccccc1)c1ccccc1`, for which the viability increase was inactive: -2.09%. Under `CCOP(C)(=S)SCC(=O)NC(C)(CC)C(=O)O` (centres undefined) stands inactive: -1.04%.

On to `Cc1ccccc1NP(C)(=O)Nc1ccccc1C`, for which the viability increase was inactive: -0.53%. Next, `CP(=O)(Nc1ccc2c(c1)OCCO2)Oc1ccccc1` (centres undefined): inactive: -4.21%; `CN(C)CCOC(=O)C(O)(c1ccccc1)C1CCCCC1` (centres undefined): inactive: -2.05%. With `COc1ccc(OP(C)(=O)Nc2cccc(Br)c2)cc1` (centres undefined), the viability increase is inactive: -4.66%. Under `CCOC(=O)c1ccc(NP(C)(=O)Oc2ccc(Cl)cc2)cc1` (centres undefined) stands inactive: -1.9%; under `CP(=O)(OC12CC3CC(CC(C3)C1)C2)OC12CC3CC(CC(C3)C1)C2`, inactive: -4.83%. Next, `CP(=O)(Oc1ccccc1)N1CCOC1=O` (centres undefined): inactive: 0.35%.

Take `CCN(CC)CC(O)COC(=O)C(O)(c1ccccc1)C1CCCCC1` (centres undefined): the viability increase was inactive: -1.06%.

Turning to `COc1ccc(OP(C)(=O)Nc2ccc(Br)cc2)cc1` (centres undefined), the viability increase was inactive: -1.65%.

On to `CC(C)(C)c1ccc(OP(C)(=O)O)cc1`, for which the viability increase is inactive: -1.02%. Under `CP(=O)(Nc1ccc(Cl)cc1)Oc1ccc(F)cc1` (centres undefined) stands inactive: -3.35%. Turning to `COc1ccc(OP(C)(=O)Nc2ccccn2)cc1` (centres undefined), the viability increase was inactive: -0.78%.

With `CN(C)CCOC(=O)C(O)(c1ccccc1)C1CCCC1` (centres undefined), the viability increase was inactive: 0.47%.

Consider `CP(=O)(Nc1ccccn1)Oc1ccccc1` (centres undefined), for which the viability increase was inactive: 0.38%.

With `COc1ccccc1OP(C)(=O)Nc1ccc(C)cc1C` (centres undefined), the viability increase is inactive: -3.09%. For `CCc1ccc(OP(C)(=O)O)cc1`, the viability increase was inactive: -2.41%. Regarding `Cc1c(NP(C)(=O)Oc2ccc(C(C)C)cc2)c(=O)n(-c2ccccc2)n1C` (centres undefined), the viability increase is inactive: 0.26%. Under `COc1ccccc1OP(C)(=O)Nc1ccc(C)c(C)c1` (centres undefined) stands inactive: -1.14%; under `COc1ccc(OP(C)(=O)Nc2ccccc2Br)cc1` (centres undefined), inactive: -1.41%; under `Cc1nc2ccc3ccccc3c2o1.O=[N+]([O-])c1cc([N+](=O)[O-])c(O)c([N+](=O)[O-])c1`, inactive: 1.01%. Next, `CC(C)(C)c1ccc(OP(C)(=O)Nc2ccc(SC(F)(F)F)cc2)cc1` (centres undefined): inactive: -2.14%; `COc1ccc(OP(C)(=O)Nc2cccc(F)c2)cc1` (centres undefined): inactive: -0.94%; `COc1ccccc1OP(C)(=O)Nc1ccc(C)cc1` (centres undefined): inactive: -4.03%.

Take `Cc1ccc(NP(C)(=O)Oc2ccccc2)c(C)c1` (centres undefined): the viability increase is inactive: -1.38%. For the compound `CCOC(=O)c1ccc(NP(C)(=O)Oc2ccccc2)cc1` (centres undefined), the viability increase was inactive: 0.72%. Turning to `CP(=O)(NC(=O)Nc1ccccc1)Oc1ccccc1` (centres undefined), the viability increase was inactive: -0.35%.

In the case of `Cc1cc(C)cc(OP(C)(=O)Nc2ccc(SC(F)(F)F)cc2)c1` (centres undefined), the viability increase is inactive: -3.63%.

Consider `Cc1cccc(C)c1OP(C)(=O)Nc1ccc(SC(F)(F)F)cc1` (centres undefined), for which the viability increase was inactive: -4.79%.

For `CP(=O)(Nc1ccccn1)Oc1ccc(Cl)cc1` (centres undefined), the viability increase is inactive: -2.24%. With `CCOC(=O)c1ccc(NP(C)(=O)Oc2ccc(OC)cc2)cc1` (centres undefined), the viability increase is inactive: -1.48%. For `CCOP(C)(=S)SCC(=O)NC(C)C(=O)O` (centres undefined), the viability increase was inactive: -1.5%. Under `CP(=O)(Nc1ccccc1Br)Oc1ccccc1` (centres undefined) stands inactive: -2.46%. Take `CP(=S)(Nn1cnnc1)Oc1ccccc1` (centres undefined): the viability increase was inactive: 0.06%. As to `CP(=O)(Nc1ccc(SC(F)(F)F)cc1)Oc1ccccc1` (centres undefined), the viability increase was inactive: -1.16%. `COc1ccccc1OP(C)(=O)Nc1c(C)cccc1C` (centres undefined): the viability increase was inactive: -2.1%.

On to `CN1CCCCC1COC(=O)C1(O)c2ccccc2CCc2ccccc21` (centres undefined), for which the viability increase is inactive: -2.12%. Under `Cc1nc2ccc3ccccc3c2s1.O=[N+]([O-])c1cc([N+](=O)[O-])c(O)c([N+](=O)[O-])c1` stands inactive: 3.07%; under `CCOC(=O)c1ccc(NP(C)(=O)Oc2cc(C)cc(C)c2)cc1` (centres undefined), inactive: -3.3%; under `Cc1cc(C)cc(OP(C)(=O)Nc2ccc(C)cc2C)c1` (centres undefined), inactive: -1.18%.

Turning to `Cc1ccc(C)c(NP(C)(=O)Oc2ccccc2)c1` (centres undefined), the viability increase is inactive: -0.4%. Regarding `Cc1cc(C)cc(OP(C)(=O)Nc2ccccn2)c1` (centres undefined), the viability increase is inactive: -3.21%. Next, `CC1=NCCc2c1[nH]c1ccccc21.O=[N+]([O-])c1cc([N+](=O)[O-])c(O)c([N+](=O)[O-])c1`: inactive: -4.51%.

For the origin of these results see PubChem BioAssay AID799 (SRMLSC, 2007).
